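Growth conditions: 96-well plates. Treatment: test compound, 48 hours, 5 concentrations. Analysis: linear interpolation between bracketing concentrations; unreached endpoints set to highest concentration. GI50 is the concentration that inhibits growth by half. TGI is the concentration that stops growth completely.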
Test system: MDA-MB-468 breast
Test: DTP human tumour cell line panel, 48 h

Cc1ccc(N(CCCl)CCCl)cc1
GI50: 1550 nM
TGI: 5.86 µM
